Amino acid sequences for entries named in this document (tags omitted). A change or cut given only in a name is not applied to a line headed by its entry.
UniProt P05804: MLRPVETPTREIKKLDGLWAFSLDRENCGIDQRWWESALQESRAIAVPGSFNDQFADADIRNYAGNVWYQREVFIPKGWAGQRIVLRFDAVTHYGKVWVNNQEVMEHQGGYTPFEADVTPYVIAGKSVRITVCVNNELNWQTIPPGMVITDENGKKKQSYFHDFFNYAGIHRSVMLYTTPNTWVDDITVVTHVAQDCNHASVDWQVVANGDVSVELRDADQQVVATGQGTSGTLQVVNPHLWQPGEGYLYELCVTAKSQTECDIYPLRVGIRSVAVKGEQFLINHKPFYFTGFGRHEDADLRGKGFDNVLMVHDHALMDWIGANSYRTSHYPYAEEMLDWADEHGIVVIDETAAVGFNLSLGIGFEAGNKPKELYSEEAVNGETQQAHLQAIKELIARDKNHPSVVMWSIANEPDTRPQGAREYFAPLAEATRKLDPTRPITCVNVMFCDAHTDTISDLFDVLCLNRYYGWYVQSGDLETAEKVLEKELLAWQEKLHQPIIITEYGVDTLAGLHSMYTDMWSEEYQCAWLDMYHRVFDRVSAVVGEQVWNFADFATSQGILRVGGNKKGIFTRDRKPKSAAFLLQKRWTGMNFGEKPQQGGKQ

In PMC7717682 (Journal of Enzyme Inhibition and Medicinal Chemistry, 2020):

Target: Escherichia coli GUS (EcGUS) (Escherichia coli, UniProt P05804)
Experiment: EcGUS inhibition assay
Format: biochemical
Details: read-out: IC50 against EcGUS; pNPG 250 µM, PBS pH 7.4, 37 °C, 30 min

**Q.** acetylacteoside was tested. Which IC50 did it give?
**A.** The IC50 was 6.6 µM.
